Results as given in BindingDB's records for doi:10.1016/s0014-2999(98)00241-6 (Mcgill University, 1998).

Chains of the proteins cited; added tags and fusions are not shown.
UniProt P31652, whole entry: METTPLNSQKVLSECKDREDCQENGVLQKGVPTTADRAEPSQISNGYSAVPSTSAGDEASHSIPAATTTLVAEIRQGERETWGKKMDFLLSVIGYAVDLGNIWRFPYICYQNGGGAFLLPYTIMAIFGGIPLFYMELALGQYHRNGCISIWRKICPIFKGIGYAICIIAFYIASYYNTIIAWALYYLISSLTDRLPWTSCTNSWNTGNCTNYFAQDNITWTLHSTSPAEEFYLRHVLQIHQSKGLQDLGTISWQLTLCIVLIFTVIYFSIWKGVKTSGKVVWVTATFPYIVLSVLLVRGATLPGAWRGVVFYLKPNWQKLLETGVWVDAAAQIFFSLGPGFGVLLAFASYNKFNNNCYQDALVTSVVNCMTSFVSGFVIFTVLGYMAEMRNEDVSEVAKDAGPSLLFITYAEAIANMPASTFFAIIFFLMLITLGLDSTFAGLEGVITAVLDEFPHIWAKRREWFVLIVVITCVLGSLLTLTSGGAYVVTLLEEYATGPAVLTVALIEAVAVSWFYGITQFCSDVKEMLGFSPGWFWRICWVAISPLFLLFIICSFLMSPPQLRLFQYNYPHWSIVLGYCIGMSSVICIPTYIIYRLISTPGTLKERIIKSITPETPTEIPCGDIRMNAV

Experiments:
[1] = target: Norepinephrine transporter (Rattus norvegicus, UniProt Q9JIA2)
[2] = target: Sodium-dependent serotonin transporter (Rattus norvegicus, UniProt P31652)

CNCC[C@H](Oc1cccc2ccccc12)c1cccs1 [DULOXETINE]
Ki [1]: 3 nM

COc1ccc(C(CN(C)C)C2(O)CCCCC2)cc1 (stereo not drawn) [NSC_62923]
Ki [1]: 1260 nM

Fc1ccc([C@@H]2CCNC[C@H]2COc2ccc3c(c2)OCO3)cc1 [PAROXETINE]
Ki [2]: 0.04 nM
